This note sets out measurements from patent US7090837.

Chains of the proteins cited; added tags and fusions are not shown.
UniProt P02786, whole entry: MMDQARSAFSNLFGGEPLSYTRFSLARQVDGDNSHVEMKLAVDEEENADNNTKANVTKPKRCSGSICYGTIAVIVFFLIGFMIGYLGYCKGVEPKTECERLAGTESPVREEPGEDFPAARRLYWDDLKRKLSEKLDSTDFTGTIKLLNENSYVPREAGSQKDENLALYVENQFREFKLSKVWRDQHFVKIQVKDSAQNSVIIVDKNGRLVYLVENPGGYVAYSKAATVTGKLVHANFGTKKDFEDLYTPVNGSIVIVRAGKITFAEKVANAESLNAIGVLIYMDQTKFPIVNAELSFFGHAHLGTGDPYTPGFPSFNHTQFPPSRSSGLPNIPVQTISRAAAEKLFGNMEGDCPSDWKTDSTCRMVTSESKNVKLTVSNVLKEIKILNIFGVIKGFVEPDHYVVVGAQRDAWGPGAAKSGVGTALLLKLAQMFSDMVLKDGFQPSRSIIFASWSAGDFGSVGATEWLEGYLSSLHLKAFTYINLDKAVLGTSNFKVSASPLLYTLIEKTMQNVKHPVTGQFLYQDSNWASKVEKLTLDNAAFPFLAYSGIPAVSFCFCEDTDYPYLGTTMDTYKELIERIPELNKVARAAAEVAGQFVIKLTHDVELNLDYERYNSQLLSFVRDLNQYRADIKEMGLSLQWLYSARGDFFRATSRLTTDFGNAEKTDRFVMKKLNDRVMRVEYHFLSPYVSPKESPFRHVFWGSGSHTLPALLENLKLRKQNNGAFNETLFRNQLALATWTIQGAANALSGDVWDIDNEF

The target of assay [1] is transferrin receptor on HepG2 cells (immortalized human hepatocyte cell line) (human) (UniProt P02786). Kind of assay: cell-based or functional assay.
Assay [2] addresses LDL receptor (LDLR) on HepG2-hLDLR cells (human) (UniProt P01130). Kind of assay: cell-based or functional assay.

In the case of “hTf-CD40 chimeric targeting polypeptide (human transferrin fused to the transmembrane domain and cyt (from UniProt P02787 20-698; P25942 194-277) (ligand)”, the transduction efficiency on HepG2 cells after desferoxamine upregulation of the transferrin receptor in assay [1] came to 1.5 fold. Take “ApoE4-CD40 chimeric targeting polypeptide (apolipoprotein E4 fused to the transmembrane domain and c (from UniProt P02649 19-317; P25942 194-277) (ligand)”: the transduction efficiency on HepG2-hLDLR cells after LDLR upregulation in lipoprotein deficient serum in assay [2] was determined as 2 fold.
